Measurements from patent publication US20120190579A1, “Functionalisation of Solid Substrates” (priority 2009, published 2012).

Protein sequences, listed by entry. Tags and fused reporters are not part of them. Lines headed by an entry give the natural chain unless they say otherwise; changes in a name come on top.
UniProt P30874: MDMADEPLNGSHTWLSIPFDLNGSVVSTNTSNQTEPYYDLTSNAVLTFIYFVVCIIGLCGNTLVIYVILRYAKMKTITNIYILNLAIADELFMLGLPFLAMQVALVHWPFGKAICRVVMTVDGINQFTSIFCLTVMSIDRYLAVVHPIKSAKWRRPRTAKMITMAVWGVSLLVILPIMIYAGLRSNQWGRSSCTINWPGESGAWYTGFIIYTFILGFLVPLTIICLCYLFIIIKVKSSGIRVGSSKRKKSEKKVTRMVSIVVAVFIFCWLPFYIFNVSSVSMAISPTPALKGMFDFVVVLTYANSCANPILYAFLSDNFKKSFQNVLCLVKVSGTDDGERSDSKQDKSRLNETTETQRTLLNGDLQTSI

Biological target: T1, human somatostatin receptor 2 (Homo sapiens, UniProt P30874)
T1 construct: host or cells: HEK293 cells stably expressing Kir3.1 and Kir3.2A
Assay: Whole cell patch-clamp current recordings of bridged somatostatin analogues
Type: cell-based
Settings: 20 μM; HEK 293 cells expressing HKIR3.1/3.2 channel and human somatostatin receptor 2; clamped at −60 mV
Method: HEK 293 cells expressing HKIR3.1/3.2 channel and human somatostatin receptor 2 were treated with these compounds, and whole cell patch-clamp current recordings taken.
Cell-culture methods and the generation of stable cell lines were carried out as described in J Biol Chem 275, 921-9 (2000). HEK293 cells (human embryonic kidney cell line) stably expressing Kir3.1 and Kir3.2A channels were maintained in minimum essential medium supplemented with 10% foetal calf serum and 727 μg of G418 (Invitrogen), at 37° C. in humidified atmosphere (95% O2, 5% CO2). Cells were transiently transfected with SSTR2DNA (Missouri S&T cDNA Resource Center) along with pEGFP-N1 (Clontech) for visualization of transfected cells using epifluorescence. Transfections were performed with 5 μl of Fugene HD (Roche) and 800 ng SSTR2-DNA and 40 ng EGFP-DNA per 97 μl of cell culture medium (containing no serum or antibiotics).
Bridged somatostatins were prepared as described above. Somatostatin and its analogues were dialysed for 24 h at 4° C. in buffer (50 mM sodium phosphate, pH 6.2) to remove the organic solvents. After dialysis the concentration was determined and the peptides stored at 4° C. A final concentration of 20 μM somatostatin and analogues were used (dilution was done in the extracellular patch-clamp buffer).
Whole cell patch-clamp current recordings were performed with an Axopatch 200B amplifier (Axon Instruments) using fire-polished pipettes with a resistance of 3-4 MΩ pulled from filamented borosilicated glass capillaries (Harvard Apparatus, 1.5 mm OD×1.17 mm ID). Data was acquired and analysed via a Digidata 1322A interface (Axon Instruments) and pCLAMP software (version 8.1, Axon Instruments). A fast perfusion system was used to apply somatostatin and analogues (Rapid Solution Changer, RSC-160, Bio-Logic France). Cells were clamped at −60 mV. […] For each cell it was assessed if flow artifacts resulting from the pressure of drug application were present. […]

Substance | activation of GIRK currents (whole cell patch-clamp current amplitude)
PEGylated-dibromomaleimide bridged analogue: somatostatin reduced and bridged with N-PEG dibromomaleimide | robust activation of GIRK currents in an amplitude comparable to somatostatin iteslf
dibromomaleimide bridged analogue: somatostatin whose two reduced cysteine residues are bridged by reaction with dibromomaleimide | robust activation of GIRK currents in an amplitude comparable to somatostatin iteslf
fluorescein dibromomaleimide-bridged analogue: somatostatin reduced and bridged with N-fluorescein dibromomaleimide | robust activation of GIRK currents in an amplitude comparable to somatostatin iteslf
